Columns and labels:
[1] = biological target: 5-HT receptor in human colon longitudinal muscle (Homo sapiens, UniProt P41595); experiment: 5-HT-induced potentiation of electrically stimulated contractions of human colon longitudinal muscle strips; type: cell-based
human 5-HT4 receptor = human 5-HT4 receptor (Homo sapiens, UniProt Q13639); details: cited from earlier work
5-HT2B receptor = 5-HT2B receptor (Homo sapiens, UniProt P41595); details: cited from earlier work

Sequences of proteins named here, by UniProt entry; tags and fusion partners are left off.
UniProt P41595, whole entry: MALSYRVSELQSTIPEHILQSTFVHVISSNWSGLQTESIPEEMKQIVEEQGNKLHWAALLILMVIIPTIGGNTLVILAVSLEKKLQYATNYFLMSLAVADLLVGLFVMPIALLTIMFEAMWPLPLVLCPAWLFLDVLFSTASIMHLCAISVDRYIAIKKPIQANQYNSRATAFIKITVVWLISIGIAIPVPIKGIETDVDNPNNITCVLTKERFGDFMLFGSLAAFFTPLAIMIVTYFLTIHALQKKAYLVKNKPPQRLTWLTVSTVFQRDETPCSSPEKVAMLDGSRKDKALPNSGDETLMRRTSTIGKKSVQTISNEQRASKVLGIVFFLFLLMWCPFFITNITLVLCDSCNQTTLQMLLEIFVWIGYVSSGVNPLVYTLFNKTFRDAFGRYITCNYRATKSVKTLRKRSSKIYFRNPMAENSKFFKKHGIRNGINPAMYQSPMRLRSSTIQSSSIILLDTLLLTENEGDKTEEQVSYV
UniProt Q13639, whole entry: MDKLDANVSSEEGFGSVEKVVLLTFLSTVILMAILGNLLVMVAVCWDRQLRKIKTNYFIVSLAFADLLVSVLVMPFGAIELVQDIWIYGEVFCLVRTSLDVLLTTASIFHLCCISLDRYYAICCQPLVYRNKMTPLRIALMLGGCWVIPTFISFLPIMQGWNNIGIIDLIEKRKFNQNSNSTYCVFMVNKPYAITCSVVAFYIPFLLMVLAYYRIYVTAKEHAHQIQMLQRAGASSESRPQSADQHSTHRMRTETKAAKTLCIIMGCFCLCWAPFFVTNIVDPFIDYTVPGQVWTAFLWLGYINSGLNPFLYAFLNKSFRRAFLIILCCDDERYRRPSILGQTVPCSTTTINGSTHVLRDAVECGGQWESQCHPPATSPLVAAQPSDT

Cc1[nH]c2ccc(O)cc2c1CCN
pEC50 for agonists at the 5-HT receptor in colon [1]: 7.0 ± 0.4 | pEC50 for agonists at human 5-HT4 receptor (human 5-HT4 receptor): 6.0 | pEC50 for agonists at human 5-HT2B receptor (5-HT2B receptor): 6.7
